Source: US6465482B2, “Arylpiperazinyl-cyclohexyl indole derivatives for the treatment of depression” (Wyeth, priority 1999, dated 2002)

The chains behind the UniProt entries cited, without tags or fusion partners.
UniProt P31652, whole entry: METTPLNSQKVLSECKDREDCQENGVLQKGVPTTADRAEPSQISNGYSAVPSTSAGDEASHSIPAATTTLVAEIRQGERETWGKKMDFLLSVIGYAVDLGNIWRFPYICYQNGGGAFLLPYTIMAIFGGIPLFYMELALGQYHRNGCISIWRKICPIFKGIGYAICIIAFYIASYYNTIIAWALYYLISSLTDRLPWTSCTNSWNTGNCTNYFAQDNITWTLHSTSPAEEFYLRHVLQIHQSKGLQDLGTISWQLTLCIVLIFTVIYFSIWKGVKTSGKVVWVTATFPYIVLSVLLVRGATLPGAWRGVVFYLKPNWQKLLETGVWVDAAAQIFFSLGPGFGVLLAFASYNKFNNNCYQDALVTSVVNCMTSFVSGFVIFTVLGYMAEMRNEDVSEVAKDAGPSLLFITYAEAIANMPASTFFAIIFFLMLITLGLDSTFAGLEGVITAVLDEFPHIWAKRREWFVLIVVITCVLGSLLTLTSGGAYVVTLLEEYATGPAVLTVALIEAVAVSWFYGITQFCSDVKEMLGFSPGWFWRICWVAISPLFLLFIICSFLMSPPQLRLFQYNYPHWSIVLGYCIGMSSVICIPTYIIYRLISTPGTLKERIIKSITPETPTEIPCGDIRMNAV

Biological target: T1, serotonin transporter (Rattus norvegicus, UniProt P31652)
T1 construct: frontal cortical membranes prepared from male Sprague-Dawley rats; from tissue; host or cells: rat frontal cortex membranes
Assay: serotonin transporter affinity, 3H-paroxetine binding, frontal cortical membranes
Details: 3H-paroxetine 0.1 nM; read-out: ST (Ki, nM,)

Structure (SMILES)	Ki
Cn1cc([C@H]2CC[C@@H](N3CCN(c4cccc5[nH]ccc45)CC3)CC2)c2cc(C#N)ccc21 [Example 12a, 3-{(1,4-cis)-4-[4-(1H-indol-4-yl)-piperazin-1-yl]-cyclohexyl}-1-methyl-1H-indole-5-carbonitrile]	0.76 nM
CCn1cc([C@H]2CC[C@@H](N3CCN(c4cccc5[nH]ccc45)CC3)CC2)c2cc(C#N)ccc21 [Example 13a, 1-Ethyl-3-{(1,4-cis)-4-[4-(1H-indol-4-yl)-piperazin-1-yl]-cyclohexyl}-1H-indole-5-carbonitrile]	8.9 nM
CCn1cc([C@H]2CC[C@H](N3CCN(c4cccc5[nH]ccc45)CC3)CC2)c2cc(C#N)ccc21 [Example 13b, 1-Ethyl-3-{(1,4-trans)-4-[4-(1H-indol-4-yl)-piperazin-1-yl]-cyclohexyl}-1H-indole-5-carbonitrile]	40 nM
CCCn1cc([C@H]2CC[C@@H](N3CCN(c4cccc5[nH]ccc45)CC3)CC2)c2cc(C#N)ccc21 [Example 14a, 3-{(1,4-cis)-4-[4-(1H-Indol-4-yl)-piperazin-1-yl]-cyclohexyl}-1-propyl-1H-indole-5-carbonitrile]	17 nM
CCCn1cc([C@H]2CC[C@H](N3CCN(c4cccc5[nH]ccc45)CC3)CC2)c2cc(C#N)ccc21 [Example 14b, 3-{(1,4-trans)-4-[4-(1H-indol-4-yl)-piperazin-1-yl]-cyclohexyl}-1-propyl-1H-indole-5-carbonitrile]	40 nM
Fc1ccc2[nH]cc([C@H]3CC[C@@H](N4CCN(c5cccc6cccnc56)CC4)CC3)c2c1 [Example 27a, 8-{4-[(1,4-cis)-4-(5-Fluoro-1H-indol-3-yl)-cyclohexyl]-piperazin-1-yl}-quinoline]	8.6 nM
Fc1ccc2[nH]cc([C@H]3CC[C@H](N4CCN(c5cccc6cccnc56)CC4)CC3)c2c1 [Example 27b, 8-{4-[(1,4-trans)-4-(5-Fluoro-1H-indol-3-yl)-cyclohexyl]-piperazin-1-yl}-quinoline]	28 nM
